# Target: recombinant human MAO-A (hMAOA) (Homo sapiens, UniProt P21397)
# The chains behind the UniProt entries cited, without tags or fusion partners.
# UniProt P21397, whole entry: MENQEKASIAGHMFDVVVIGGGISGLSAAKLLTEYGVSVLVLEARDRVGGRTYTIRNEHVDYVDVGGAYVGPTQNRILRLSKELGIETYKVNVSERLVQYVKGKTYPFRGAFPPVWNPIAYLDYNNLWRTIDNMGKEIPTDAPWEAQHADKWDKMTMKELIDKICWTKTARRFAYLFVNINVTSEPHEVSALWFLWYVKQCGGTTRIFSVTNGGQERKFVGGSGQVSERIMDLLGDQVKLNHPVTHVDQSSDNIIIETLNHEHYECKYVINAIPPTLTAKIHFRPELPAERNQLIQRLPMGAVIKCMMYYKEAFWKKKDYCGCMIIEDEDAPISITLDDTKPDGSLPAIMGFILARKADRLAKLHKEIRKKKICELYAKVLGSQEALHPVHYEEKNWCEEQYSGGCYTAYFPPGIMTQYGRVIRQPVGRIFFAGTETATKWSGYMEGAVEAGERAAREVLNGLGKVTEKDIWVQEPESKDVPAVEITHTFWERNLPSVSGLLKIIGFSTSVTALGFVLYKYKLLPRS
# Assay: MAO-A inhibition, fluorometric Amplex UltraRed assay
# Details: 1 µM compound
smiles,measurement,value
"C#CCN(C)CCCOc1ccc(Cl)cc1Cl [Chlorgyline, reference compound]",Inhibition Activity 1 µM MAO-A,45 ± 6.6%

# From publication PMC12655551, “Design, Synthesis, and Evaluation of Pyrrole-Based Selective MAO-B Inhibitors with Additional AChE Inhibitory and Neuroprotective Properties Identified via Virtual Screening” (Pharmaceuticals, 2025)
